Measurements: publication PMC7746742, “The novel rexinoid MSU-42011 is effective for the treatment of preclinical Kras-driven lung cancer” (Scientific Reports, 2020)

Columns and labels:
iNOS = iNOS inhibition assay (LPS-induced NO production, Griess reaction); details: read-out: iNOS suppression IC50; RAW264.7 cells, 0–1000 nM rexinoids, LPS 1 ng/ml 24 h, NO by Griess assay; mean ± SE of 3 experiments
Protocol: To evaluate the anti-inflammatory effects of the novel rexinoids, we utilized the iNOS suppression assay. Inhibition of iNOS in vitro directly correlates with efficacy in our preclinical model of Kras-driven lung cancer. RAW264.7 macrophage-like cells were treated with 0–1 μM rexinoids and stimulated with 1 ng/mL lipopolysaccharide for 24 h, and then NO was measured in the media.
RAW264.7 cells were plated in 96-well plates (20,000 cells/well). After overnight attachment, cells were treated with twofold serial dilutions (0–1000 nM) of rexinoids. After a 20 min incubation at 37 °C, cells were stimulated with 1 ng/mL LPS for 24 h. NO production was measured in culture medium using the Griess reaction. IC50 values were calculated using GraphPad Prism 8.1.2 software for Windows using a log([nM drug concentration]) vs. response curve fit.

[1] = Oral exposure of MSU-42011 in diet for 4 days (LC-MS of plasma and lung homogenates); details: mice fed 100 mg/kg of diet (~25 mg/kg body weight) for 4 days
Protocol: Based on the data from the in vitro screening assays, the novel rexinoid MSU-42011 was selected for testing in vivo because of its potent iNOS suppression, low SREBP induction, and activation of RXRα. Before starting efficacy studies, the oral exposure of MSU-42011 was measured in vivo. Mice were fed diet containing MSU-42011 (100 mg/kg of diet or ~ 25 mg/kg body weight) for 4 days. Plasma and lung homogenates were analyzed by liquid chromatography-mass spectrometry. Adjusted steady state concentrations of MSU-42011 were 78 nM in the plasma and 72 nM in the lung, which are similar to values observed with other rexinoids that are effective in a preclinical model of lung cancer.
Blood was collected via cardiac puncture into 1 ml lithium heparin tubes (Greiner Bio-one). Blood was centrifuged at 5000 g for 5 min at 4 °C. Plasma was separated and frozen at − 80 °C until processed as described. Acetonitrile was added to precipitate plasma proteins. Samples were centrifuged at 14,000 g for 5 min, and the supernatant was filtered with a 0.2 µm syringe filter. Each sample was dried overnight and reconstituted in 200 µl of 50:50 methanol:water solution for analysis via HPLC. HPLC was performed on a Quatro Premier instrument with an Ascentis Express C18 column and an Acquity UPLC system. […] The flow rate was 0.3 ml/minute, and bexarotene and MSU-42011 were detected at ~ 4.5 min. […]

Kras-driven lung tumors [2] = assay: Treatment of established vinyl carbamate-induced lung adenocarcinomas in A/J mice
Protocol: All experiments were performed ethically in accordance with the best practices and AAALAC-accredited Standards for the Management of Laboratory Animals at Michigan State University (MSU). These standards include making every effort to minimize suffering. Mice were euthanized by inhalation of carbon dioxide followed by removal of the lungs. All animal protocols were approved by the Institutional Animal Care and Use Committee (IACUC, protocol 201,800,050)) at MSU. At 7 and 8 weeks of age, A/J female mice (Jackson Laboratories) were injected i.p. with vinyl carbamate (Toronto Research Chemicals, 0.32 mg/mouse). Mice were fed a semi-synthetic diet (AIN-93G BioServ, Flemington NJ), beginning one week before initiation with vinyl carbamate and then for 8 weeks after the first injection. The mice were then randomized into groups (n = 15 mice/group) and fed treatment diets (100 mg rexinoid/kg AIN-93G diet or ~ 25 mg/kg body weight) for 12 weeks. Rexinoids were dissolved in a vehicle of 12.5 ml ethanol and 37.5 ml Neobee oil (Spectrum Chemical, Gardena CA) per kg AIN-93G diet. Six total doses of paclitaxel (Fisher; 15 mg/kg i.p.) and then carboplatin (Fisher; 50 mg/kg i.p.) were given every other week, beginning 9 weeks after injection with vinyl carbamate. After 12 weeks on the treatment diets, blood and lungs were harvested. Lungs were inflated with PBS and surface lesions counted. The left lung was fixed in neutral-buffered formalin (NBF), then sample numbers blinded and randomized. Grossly visible lung tumors on the surface of the left lung were counted. The left lung was embedded in paraffin, step-sectioned (6 sections/lung, 200 microns apart) and then stained with Haemotoxylin and Eosin (H&E). The number, size, and histopathology of tumors on the slides were then evaluated as described. The right lobes of the lung were divided into halves. One half was analyzed by flow cytometry and the other half flash frozen (CO2 and ethanol bath) and stored at − 80 °C.
At 11, 15, and 20 weeks after initiation, anesthesia was induced using 2–4% isofluorane in oxygen at 0.8–2 L/min in a chamber and then maintained using 1.5–2% isofluorane in oxygen at 0.8 L/min using a nosecone. Animals were kept on a heating pad or a heated platform while under anesthesia. Fur was removed from the thoracic area using a chemical depilitory (Nair) immediately prior to imaging. A Vevo 2100 (Fujifilm VisualSonics) high-frequency ultrasound with a MS550D 40 MHz transducer was used to image lung tumors.

[3] = Steady state drug levels in plasma after 12 weeks on diet (HPLC-MS); details: 100 mg/kg diet for 12 weeks, LC-MS, n = 8, mean ± SE
Protocol: Blood was collected via cardiac puncture into 1 ml lithium heparin tubes (Greiner Bio-one). Blood was centrifuged at 5000 g for 5 min at 4 °C. Plasma was separated and frozen at − 80 °C until processed as described. Acetonitrile was added to precipitate plasma proteins. Samples were centrifuged at 14,000 g for 5 min, and the supernatant was filtered with a 0.2 µm syringe filter. Each sample was dried overnight and reconstituted in 200 µl of 50:50 methanol:water solution for analysis via HPLC. HPLC was performed on a Quatro Premier instrument with an Ascentis Express C18 column and an Acquity UPLC system. The mobile phase A consisted of 10 mM aq. ammonium acetate and the mobile phase B consisted of methanol. The following gradient was applied 99–5% A (0–4 min), 5% A (4–5.1 min), 5–99% A (5.1–6 min). The flow rate was 0.3 ml/minute, and bexarotene and MSU-42011 were detected at ~ 4.5 min. A standard curve was prepared by processing plasma from untreated animals and spiking the samples with 0.1–3 μM of the appropriate rexinoid then reconstituting the samples.

[4] = Lipid levels in plasma (triglyceride and cholesterol kits); details: 100 mg/kg diet for 12 weeks, n = 8, mean ± SE
Protocol: Triglyceride and cholesterol levels in plasma (n = 8 mice/group) harvested at necropsy were measured using the Triglyceride Quantification Assay Kit (Abcam) or the Cholesterol Quantification Kit (Sigma-Aldrich), respectively, using the recommended protocol supplied by the manufacturer.

[5] = Mouse weights as a marker of drug toxicity; details: rexinoids in diet; initial week 6, final week 20
Excerpt: Mouse weights were monitored as a marker of drug toxicity (Supplemental Fig. 3). The rexinoids were well-tolerated when fed in diet, as the mice in the control, bexarotene, and MSU-42011 groups all gained weight as expected during the study. There were no significant differences in the average weights between groups of mice on single drugs.
Control Bexarotene 42011 C/P Bex + C/P 42011 + C/P
Initial weight Final weight
Supplemental Fig 3: Mouse weights. A/J mice were weighed weekly during the study. Values shown represent average mouse weights (n = 14-15/group) before treatment diets (initial weight at week 6) and at the end of the study (final weight at week 20). * p < 0.01 compared to control, # p < 0.01 compared to bexarotene, ! p < 0.05 compared to MSU-42011 (one-way ANOVA followed by Tukey HSD); ** p < 0.05, *** p < 0.01 (two-tailed t test).

Kras-driven lung tumors [6] = assay: Immunohistochemistry and H&E histology of lung tumors; details: 12 weeks of treatment
Excerpt: At the end of the treatment study, lungs were harvested, sectioned, stained by H&E and randomized to blind the identity of the treatment group until all slides had been analyzed. Tumors were graded as described[46],[52] for nuclear and histological severity and given a grade of either low, medium, or high. Tumors assigned a low nuclear grade have smaller, more regular nuclei, while tumors in the high nuclear grade have enlarged, irregular nuclei with visible chromatin condensation and mitotic figures. Tumors in the low histological grade have space between cells, while tumors with a high histological grade are dense and obliterative, with very little to no space between tumor cells. […] There were no differences in tumor grades between bexarotene-treated mice and the controls. Importantly, MSU-42011 induced a notable change in the histological organization of tumors characterized by a loss of cells and increased acellular space within the tumor borders (Fig. 3B).
Paraffin blocks of the left lobe of the lung were sectioned, and hydrogen peroxide was used to quench endogenous peroxidase activity. Sections were immunostained with antibodies against CD206 (1:200, Abcam), CD8 (1:40, 53–6.7, Biolegend), cleaved caspase 3 (1:100, 5A1E, Cell Signaling), PCNA (1:200, sc-56, Santa Cruz Biothechonlogies), F4/80 (1:50, BM8, Invitrogen), CD107a (1:50, Biolegend), p-ERK (1:50, Cell Signaling) and visualized with biotinylated anti-rabbit or anti-rat secondary antibodies (Cell Signaling or Vector Labs), as previously described. Signal was detected using a DAB substrate (Cell Signaling) following the manufacturer’s recommendations. Sections were counterstained with hematoxylin (Vector Labs).

[7] = tested on: immune cells in tumor-bearing lungs; assay: Flow cytometry of immune cell populations in the lung; details: 12 weeks of treatment, in comparison to the controls
Excerpt: RXR and its nuclear receptor partners are known to regulate migration and activity of macrophages and other immune cells. […] However, treatment with the combination of MSU-42011 and C/P was associated with a decrease in CD206, a marker of tumor-promoting macrophages, on alveolar macrophages as measured by mean fluorescence intensity. This decrease was statistically significant (p = 0.0038) in comparison to treatment with MSU-42011 alone. The flow cytometry results were confirmed by IHC staining for F4/80 (a general marker for macrophages) and CD206. Alveolar macrophages promote tumor growth and are sensitive to chemotherapy.
The same two lobes of the right lung were harvested from each A/J mouse (n = 6/group) for flow cytometry and incubated in digestion media consisting of collagenase (300 U/ml, Sigma), dispase (1 U/ml, Worthington), and DNAse (2 U/ml, Calbiochem) for 30 min at 37 °C with stirring. Cells were then passed through a 40 µm cell strainer (BD Falcon), and red blood cells eliminated with lysis solution. […] Cells were analyzed using a Cytek Aurora equipped with 5 lasers (UV 355 nm, violet 405 nm, blue 488 nm, yellow-green 561 nm, and red 640 nm) and FlowJo x.10.0.7r2 software (Tree Star). […]

A549 lung cancer cells = assay: MTT proliferation assay; details: 0–1 μM rexinoids, 72 hr
Protocol: were treated with 0-1 μM rexinoids for 72 hr. Proliferation was measured using the MTT assay.
MTT Assay. A549 cells were plated in 96-well plates (2,000 cells/well). After overnight attachment, cells were treated with 2 fold dilutions (0-1000 nM rexinoids) for 72 hr. 50 μL 3-(4,5-dimethylthiazol-2-yl)-2,5-diphenyltetrazolium bromide (MTT; Sigma M2128) was added to each well, and cells were incubated at 37 °C for 4 hr. Media was removed and cells were lysed with developing solution (0.04 M HCl in isopropanol). Plates were read at 550 nm.
(also on this page, place not known: 110A549 Cell Proliferation (% DMSO Control) 37°C)

[8] = rexinoids 100 mg/kg diet 12 weeks, C/P i.p. x6
[9] = rexinoids 100 mg/kg diet 12 weeks, C/P i.p. x6, mean ± SE
[10] = tumor histopathology, 12 weeks of treatment

IC50 (iNOS): 0.158 µM
Adjusted steady state concentration in the lung [1]: 72 nM
Adjusted steady state concentration in the plasma [1]: 78 nM
Drug levels in plasma [3]: 0.0974 ± 0.0133 µM
Cholesterol in plasma [4]: 1.4 ± 0.05 µg/µL
Triglycerides in plasma [4]: 1.39 ± 0.11 nmol/µL
Cholesterol in plasma ([4]; listed as MSU 42011): 1.4 ± 0.05 µg/µL
Triglycerides in plasma ([4]; listed as MSU 42011): 1.39 ± 0.11 nmol/µL
SMILES: CC(C)CN(c1cc(C(C)(C)C)cc(C(C)(C)C)c1)c1ccc(C(=O)O)cn1
Tumors upon gross observation of lungs compared to the bexarotene and control groups (Kras-driven lung tumors [2]; 100 mg/kg diet, 12 weeks): markedly fewer tumors
Average # tumors/slide (Kras-driven lung tumors [2]; rexinoids 100 mg/kg diet 12 weeks, C 50 mg/kg and P 15 mg/kg i.p. x6, mean ± SE): 2.7 ± 0.3
Average # tumors/slide (% control) (Kras-driven lung tumors [2]; [8]): 64%
Average tumor size (% control) (Kras-driven lung tumors [2]; [8]): 73%
Average tumor burden (Kras-driven lung tumors [2]; [9]): 0.43 ± 0.08 mm^3
Average tumor size (Kras-driven lung tumors [2]; [9]): 0.16 ± 0.02 mm^3
# High grade tumors (Kras-driven lung tumors [2]; [10]): 50
# Low grade tumors (Kras-driven lung tumors [2]; [10]): 7
# Medium grade (Kras-driven lung tumors [2]; [10]): 24
Low grade tumors (% total) (Kras-driven lung tumors [2]; [10]): 9%
Medium grade (% total) (Kras-driven lung tumors [2]; [10]): 29%
Mouse weights during the study [5]: gained weight as expected
Histological organization of tumors (H&E) (Kras-driven lung tumors [6]): loss of cells and increased acellular space within the tumor borders
PCNA immunohistochemistry (cell proliferation) in tumors compared to control and bexarotene groups (Kras-driven lung tumors [6]): fewer actively proliferating cells
p-ERK in tumors (Kras-driven lung tumors [6]; vs control and bexarotene groups (with or without C/P)): markedly decreased
Total and alveolar macrophages in the lungs [7]: did not alter
Growth / proliferation of A549 lung cancer cells (A549 lung cancer cells): no effect
Growth / proliferation of A549 lung cancer cells (A549 lung cancer cells; listed as 42011): do not inhibit proliferation
